Our source for the IC50 values is US11753418B2, “Compounds for the modulation of Myc activity” (Syros Pharmaceuticals, Inc., priority 2015, dated 2023).

Protein sequences, listed by entry. Tags and fused reporters are not part of them.
UniProt P01106, whole entry: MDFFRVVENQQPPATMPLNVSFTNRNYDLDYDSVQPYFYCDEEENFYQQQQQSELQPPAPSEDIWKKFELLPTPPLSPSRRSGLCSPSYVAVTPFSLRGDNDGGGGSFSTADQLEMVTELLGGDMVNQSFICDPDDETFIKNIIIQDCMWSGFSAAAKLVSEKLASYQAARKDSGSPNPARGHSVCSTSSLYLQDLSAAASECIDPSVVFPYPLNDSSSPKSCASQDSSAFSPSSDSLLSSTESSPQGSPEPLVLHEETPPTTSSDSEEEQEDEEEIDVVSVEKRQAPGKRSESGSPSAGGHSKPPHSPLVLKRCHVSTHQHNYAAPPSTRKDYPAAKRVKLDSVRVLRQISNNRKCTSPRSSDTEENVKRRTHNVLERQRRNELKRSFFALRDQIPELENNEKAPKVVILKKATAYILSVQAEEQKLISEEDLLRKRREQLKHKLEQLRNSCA

This assay addresses c-Myc/Max/Ebox DNA (Homo sapiens, UniProt P01106). The assay is described as follows: c-Myc/Max/Ebox DNA AlphaScreen Assay. The settings on record: read-out: Myc/Max/DNA Activity, free c-Myc 20 nM, his6-Max 5 nM, biotinylated Ebox oligo 10 nM, 2 hour incubation. (In general: Alpha assays give light when donor and acceptor beads are brought close together.)

Take `O=C(CCN1CC2CCC(C1)N2)Nc1sc2c(c1-c1nc3cnccc3s1)CCNC2`: the IC50 lay within 500 to 5000 nM.
